From article PMC6318248

Tests used:
[1] = biological target: Synaptobrevin-2, soluble cytosolic variant Syb([…]) (Rattus norvegicus); assay: native MS; Syb(1-96) at 10 μM, 200 mM ammonium acetate pH 7.0
[2] = biological target: Synaptobrevin-2, soluble cytosolic variant Syb([…]) (Rattus norvegicus); assay: cross-linking; 200 μM Syb(1-96), 180-350 μM BS3, 1 h at 25 °C; Coomassie gel and western blot; cross-linked peptides by LC-MS/MS
[3] = biological target: Synaptobrevin-2, soluble cytosolic variant Syb([…]) (Rattus norvegicus); assay: native MS; Syb(1-96) at higher concentrations (100 μM and 1 mM), 200 mM ammonium acetate pH 7.0

Substance: Synaptobrevin-2, soluble cytosolic variant Syb([…]) (a stretch of the chain, sequence left out) (domain or fragment; other documents disagree on this pair)
- stoichiometry N [1]: 2
- stoichiometry N [2]: < 6
- stoichiometry N [3]: < 5
